This experiment has as its target isolated polymerase domain (I1780-V2590) of DNA polymerase theta (Polθ) (Homo sapiens (Human), UniProt O75417). As to the kind of experiment: biochemical.

Chains of the proteins cited; added tags and fusions are not shown. Residues count along the entry.
UniProt O75417, 1780-2590: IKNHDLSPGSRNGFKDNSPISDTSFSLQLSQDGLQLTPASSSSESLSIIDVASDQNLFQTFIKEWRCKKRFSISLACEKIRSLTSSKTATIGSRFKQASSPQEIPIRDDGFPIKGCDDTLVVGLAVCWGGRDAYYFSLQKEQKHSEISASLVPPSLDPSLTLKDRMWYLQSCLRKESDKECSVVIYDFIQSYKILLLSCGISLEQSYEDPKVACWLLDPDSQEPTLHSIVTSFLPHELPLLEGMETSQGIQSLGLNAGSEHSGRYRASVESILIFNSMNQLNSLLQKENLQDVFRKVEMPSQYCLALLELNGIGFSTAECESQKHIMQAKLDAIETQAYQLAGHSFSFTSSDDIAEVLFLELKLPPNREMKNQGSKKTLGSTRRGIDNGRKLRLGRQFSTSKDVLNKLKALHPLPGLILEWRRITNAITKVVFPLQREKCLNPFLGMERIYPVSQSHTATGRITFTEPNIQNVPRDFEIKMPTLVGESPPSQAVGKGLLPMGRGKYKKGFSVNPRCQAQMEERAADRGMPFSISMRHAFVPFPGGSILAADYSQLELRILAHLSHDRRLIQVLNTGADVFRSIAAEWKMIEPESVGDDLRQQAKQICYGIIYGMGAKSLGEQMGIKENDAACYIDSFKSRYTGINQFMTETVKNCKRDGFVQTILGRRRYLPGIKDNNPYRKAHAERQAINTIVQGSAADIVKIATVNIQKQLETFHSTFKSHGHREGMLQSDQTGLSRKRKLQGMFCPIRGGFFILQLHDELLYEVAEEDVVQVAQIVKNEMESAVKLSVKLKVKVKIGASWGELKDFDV

By IC50 is commonly meant the concentration that gives 50% inhibition. A low value points to greater potency. Consider `CNC(=O)Nc1ccc(-c2nc3c(OC4(C)CC4)ncnc3n2Cc2cc(C)ccn2)c(Cl)c1` [Example T66, 1-(3-chloro-4-(6-(1-methylcyclopropoxy)-9-((4-methylpyridin-2-yl)methyl)-9H-purin-8-yl)phenyl)-3-methylurea], for which half-maximal inhibition (IC50) required 3.98 nM.
For `CNCCOc1ccc(-c2nc3c(OC4(C)CC4)ncnc3n2Cc2cc(Cl)ccn2)c(Cl)c1` [Example T67, 2-(3-chloro-4-(9-((4-chloropyridin-2-yl)methyl)-6-(1-methylcyclopropoxy)-9H-purin-8-yl)phenoxy)-N-methylethan-1-amine] the value was 10 nM.
For `CNCc1ccc(-c2nc3c(OC4(C)CC4)ncnc3n2Cc2cc(C)ccn2)c(Cl)c1` [Example T68, 1-(3-chloro-4-(6-(1-methylcyclopropoxy)-9-((4-methylpyridin-2-yl)methyl)-9H-purin-8-yl)phenyl)-N-methylmethanamine] the value was 15.8 nM; for `Cc1ccnc(Cn2c(-c3ccc(OCCN)cc3Cl)nc3c(OC4(C)CC4)ncnc32)c1` [Example T69, 2-(3-chloro-4-(6-(1-methylcyclopropoxy)-9-((4-methylpyridin-2-yl)methyl)-9H-purin-8-yl)phenoxy)ethan-1-amine], 10 nM.
As for `Cc1cnc(Cn2c(-c3ccc(O[C@H]4CCNC4)cc3Cl)nc3c(OC4(C)CC4)ncnc32)s1` [Example T70, (S)-2-((8-(2-chloro-4-(pyrrolidin-3-yloxy)phenyl)-6-(1-methylcyclopropoxy)-9H-purin-9-yl)methyl)-5-methylthiazole], the half-inhibitory concentration (IC50) is 6.31 nM.
For `CC1(Oc2ncnc3c2nc(-c2ccc(CC(N)=O)cc2Cl)n3Cc2noc(C(C)(C)C)n2)CC1` [Example T71, 2-(4-(9-((5-(tert-butyl)-1,2,4-oxadiazol-3-yl)methyl)-6-(1-methylcyclopropoxy)-9H-purin-8-yl)-3-chlorophenyl)acetamide] the value was 100 nM; for `Cc1cnc(Cn2c(-c3ccc(OCCN(C)C)cc3Cl)nc3c(OC4(C)CC4)ncnc32)s1` [Example T72, 2-(3-chloro-4-(6-(1-methylcyclopropoxy)-9-((5-methylthiazol-2-yl)methyl)-9H-purin-8-yl)phenoxy)-N,N-dimethylethan-1-amine], 7.94 nM; for `Cc1cnc(Cn2c(-c3cccc(OCCN(C)C)c3Cl)nc3c(OC4(C)CC4)ncnc32)s1` [Example T73, 2-(2-chloro-3-(6-(1-methylcyclopropoxy)-9-((5-methylthiazol-2-yl)methyl)-9H-purin-8-yl)phenoxy)-N,N-dimethylethan-1-amine], 10 nM.
For `CNCCCOc1ccc(-c2nc3c(OC4(C)CC4)ncnc3n2Cc2ncc(C)s2)c(Cl)c1` [Example T74, 3-(3-chloro-4-(6-(1-methylcyclopropoxy)-9-((5-methylthiazol-2-yl)methyl)-9H-purin-8-yl)phenoxy)-N-methylpropan-1-amine] the value was 5.01 nM; for `CC1(Oc2ncnc3c2nc(-c2ccc(OCCN4CCNCC4)cc2Cl)n3Cc2nnco2)CC1` [Example T76, 2-((8-(2-chloro-4-(2-(piperazin-1-yl)ethoxy)phenyl)-6-(1-methylcyclopropoxy)-9H-purin-9-yl)methyl)-1,3,4-oxadiazole], 1000 nM.
For `CC1(Oc2ncnc3c2nc(-c2ccc(CC(N)=O)cc2Cl)n3Cc2cc(C#N)ccc2F)CC1` [Example T77, 2-(3-chloro-4-(9-(5-cyano-2-fluorobenzyl)-6-(1-methylcyclopropoxy)-9H-purin-8-yl)phenyl)acetamide] the value was 7.94 nM.
For `CC1(Oc2ncnc3c2nc(-c2ccc(CC(N)=O)cc2Cl)n3Cc2ccc(F)cc2C#N)CC1` [Example T78, 2-(3-chloro-4-(9-(2-cyano-4-fluorobenzyl)-6-(1-methylcyclopropoxy)-9H-purin-8-yl)phenyl)acetamide], half-maximal inhibition (IC50) required 158 nM. Compared with the last molecule, the IC50 is about 20-fold higher.
Regarding `CC1(Oc2ncnc3c2nc(-c2ccc(CC(N)=O)cc2Cl)n3Cc2cc(F)ccc2C#N)CC1` [Example T79, 2-(3-chloro-4-(9-(2-cyano-5-fluorobenzyl)-6-(1-methylcyclopropoxy)-9H-purin-8-yl)phenyl)acetamide], the IC50 is 10 nM.
For `CC1(Oc2ncnc3c2nc(-c2cccc(/C=C/C(=O)O)c2Cl)n3Cc2cccc(Cl)c2)CC1` [Example T80, (E)-3-(2-chloro-3-(9-(3-chlorobenzyl)-6-(1-methylcyclopropoxy)-9H-purin-8-yl)phenyl)acrylic acid] the value was 7.94 nM; for `CC1(Oc2ncnc3c2nc(-c2ccc(CC(N)=O)cc2Cl)n3Cc2cccc(C#N)c2)CC1` [Example T81, 2-(3-chloro-4-(9-(3-cyanobenzyl)-6-(1-methylcyclopropoxy)-9H-purin-8-yl)phenyl)acetamide], 6.31 nM.
For `CC1(Oc2ncnc3c2nc(-c2ccc(CC(N)=O)cc2Cl)n3Cc2ccccc2C#N)CC1` [Example T82, 2-(3-chloro-4-(9-(2-cyanobenzyl)-6-(1-methylcyclopropoxy)-9H-purin-8-yl)phenyl)acetamide] the value was 15.8 nM; for `CC1(Oc2ncnc3c2nc(-c2ccc(CC(N)=O)cc2Cl)n3Cc2ccc(C#N)cc2)CC1` [Example T83, 2-(3-chloro-4-(9-(4-cyanobenzyl)-6-(1-methylcyclopropoxy)-9H-purin-8-yl)phenyl)acetamide], 50.1 nM.
For `CC1(Oc2ncnc3c2nc(-c2ccc(OCCC(=O)O)cc2Cl)n3Cc2ccc(Cl)c(Cl)c2)CC1` [Example T84, 3-(3-chloro-4-(9-(3,4-dichlorobenzyl)-6-(1-methylcyclopropoxy)-9H-purin-8-yl)phenoxy)propanoic acid] the value was 10 nM; for `CC1(Oc2ncnc3c2nc(-c2ccc(OCCC(=O)O)cc2Cl)n3Cc2cccc(Cl)c2Cl)CC1` [Example T85, 3-(3-chloro-4-(9-(2,3-dichlorobenzyl)-6-(1-methylcyclopropoxy)-9H-purin-8-yl)phenoxy)propanoic acid], 7.94 nM; for `Cc1ccnc(Cn2c(-c3ccc(C(=O)NCC(F)(F)F)cc3Cl)nc3c(OC4(C)CC4)ncnc32)c1` [Example T86, 3-chloro-4-(6-(1-methylcyclopropoxy)-9-((4-methylpyridin-2-yl)methyl)-9H-purin-8-yl)-N-(2,2,2-trifluoroethyl)benzamide], 15.8 nM.
In turn, `CC1(Oc2ncnc3c2nc(-c2ccc(OCCC(=O)O)cc2Cl)n3Cc2cccc(Cl)c2)CC1` [Example T87, 3-(3-chloro-4-(9-(3-chlorobenzyl)-6-(1-methylcyclopropoxy)-9H-purin-8-yl)phenoxy)propanoic acid] had an IC50 of 5.01 nM.
For `CC1(Oc2ncnc3c2nc(-c2ccc(OCCC(=O)O)cc2Cl)n3Cc2ccccc2Cl)CC1` [Example T88, 3-(3-chloro-4-(9-(2-chlorobenzyl)-6-(1-methylcyclopropoxy)-9H-purin-8-yl)phenoxy)propanoic acid] the value was 10 nM; for `CC1(Oc2ncnc3c2nc(-c2cccc(OCCC(=O)O)c2Cl)n3Cc2cccc(Cl)c2)CC1` [Example T89, 3-(2-chloro-3-(9-(3-chlorobenzyl)-6-(1-methylcyclopropoxy)-9H-purin-8-yl)phenoxy)propanoic acid], 6.31 nM.
For `C[C@H](Oc1cccc(-c2nc3c(OC4(C)CC4)ncnc3n2Cc2cccc(Cl)c2)c1Cl)C(=O)O` [Example T90, (S)-2-(2-chloro-3-(9-(3-chlorobenzyl)-6-(1-methylcyclopropoxy)-9H-purin-8-yl)phenoxy)propanoic acid] the value was 6.31 nM; for `C[C@@H](Oc1cccc(-c2nc3c(OC4(C)CC4)ncnc3n2Cc2cccc(Cl)c2)c1Cl)C(=O)O` [Example T91, (R)-2-(2-chloro-3-(9-(3-chlorobenzyl)-6-(1-methylcyclopropoxy)-9H-purin-8-yl)phenoxy)propanoic acid], 10 nM; for `CC1(Oc2ncnc3c2nc(-c2ccc(OCCc4nn[nH]n4)cc2Cl)n3Cc2cccc(Cl)c2)CC1` [Example T92, 8-(4-(2-(2H-tetrazol-5-yl)ethoxy)-2-chlorophenyl)-9-(3-chlorobenzyl)-6-(1-methylcyclopropoxy)-9H-purine], 7.94 nM.
For `Cc1ccnc(Cn2c(-c3ccc(C(=O)NCC(F)F)cc3Cl)nc3c(OC4(C)CC4)ncnc32)c1` [Example T93, 3-chloro-N-(2,2-difluoroethyl)-4-(6-(1-methylcyclopropoxy)-9-((4-methylpyridin-2-yl)methyl)-9H-purin-8-yl)benzamide] the value was 15.8 nM.
Take `CC1(Oc2ncnc3c2nc(-c2ccc(OCCCO)cc2Cl)n3Cc2cc(C(F)(F)F)ccn2)CC1` [Example T94, 3-(3-chloro-4-(6-(1-methylcyclopropoxy)-9-((4-(trifluoromethyl)pyridin-2-yl)methyl)-9H-purin-8-yl)phenoxy)propan-1-ol]: the 50% inhibitory concentration (IC50) was 5.01 nM.
For `Cc1ccnc(Cn2c(-c3ccc(N4CCC4=O)cc3Cl)nc3c(OC4(C)CC4)ncnc32)c1` [Example T95, 1-(3-chloro-4-(6-(1-methylcyclopropoxy)-9-((4-methylpyridin-2-yl)methyl)-9H-purin-8-yl)phenyl)azetidin-2-one] the value was 7.94 nM; for `Cc1ccnc(Cn2c(-c3ccc(N4CCOC4=O)cc3Cl)nc3c(OC4(C)CC4)ncnc32)c1` [Example T96, 3-(3-chloro-4-(6-(1-methylcyclopropoxy)-9-((4-methylpyridin-2-yl)methyl)-9H-purin-8-yl)phenyl)oxazolidin-2-one], 7.94 nM; for `CC1(Oc2ncnc3c2nc(-c2ccc(NCCC(=O)O)cc2Cl)n3Cc2cccc(Cl)c2)CC1` [Example T97, 3-((3-chloro-4-(9-(3-chlorobenzyl)-6-(1-methylcyclopropoxy)-9H-purin-8-yl)phenyl)amino)propanoic acid], 5.01 nM.
For `Cc1ccnc(Cn2c(-c3ccc(OCC(F)(F)CO)cc3Cl)nc3c(OC4(C)CC4)ncnc32)c1` [Example T98, 3-(3-chloro-4-(6-(1-methylcyclopropoxy)-9-((4-methylpyridin-2-yl)methyl)-9H-purin-8-yl)phenoxy)-2,2-difluoropropan-1-ol] the value was 6.31 nM; for `Cc1cccc(Cn2c(-c3ccc(CC(N)=O)cc3Cl)nc3c(OC4(C)CC4)ncnc32)c1` [Example T99, 2-(3-chloro-4-(9-(3-methylbenzyl)-6-(1-methylcyclopropoxy)-9H-purin-8-yl)phenyl)acetamide], 5.01 nM.

Values taken from patent publication US20250195530A1, “POLQ INHIBITORS” (ASTRAZENECA AB, priority 2022, published 2025).
